The series concerns OC[C@H]1O[C@@H](O[C@H]2[C@H](O)[C@@H](O)C(O)O[C@@H]2CO)[C@H](O)[C@@H](O)[C@@H]1O. Kind of series: purified protein, by the assay type.

What is called Km is the concentration of substrate that gives half-maximal velocity. “Schizosaccharomyces pombe anthocyanase (Santp, enzyme-3), native (Schizosaccharomyces pombe 972h-)”: for the setting “other: native enzyme-3, 45.0 °C”, the Km is reported as 91.86 mM.
For the substance “Schizosaccharomyces pombe anthocyanase, recombinant, produced in Arxula adeninivorans (r-enzyme-3, rSantp) (Schizosaccharomyces pombe 972h-)”, the Km (other: recombinant anthocyanase (r-enzyme-3)) was 11.19 mM.
